Laboratory results taken from patent publication US20040091528A1, “Soluble drug extended release system” (Yamanouchi Pharma Technologies, Inc., priority 2002, published 2004).

What was measured:
[1] = Table 1; cited from earlier work
[2] = In vitro dissolution (drug release) from 400 mg matrix tablets, USP apparatus II, SGF or SIF; assay type: physicochemical
[3] = Table 2, positively charged drugs; cited from earlier work
[4] = 1:1.5 PAA/PEO excipient mixture, SIF

Row | T10 [2, 4] [h] | T50 [2, 4] [h] | T50 in SIF ([2]; 1:1.5 PAA/PEO, SIF) [h] | T50 in SGF ([2]; 1:1.5 PAA/PEO, modified SGF) [h] | Substance | Log P [1] | Solubility [3] [mg/mL]
1 |  |  |  |  | Amitriptuline HCl | 4.8 | 
2 | 1 | 14 | 14 | 3 | Thiamine Mononitrate |  | 300
